Earlier results on 1 compound are cited in patent US9895730B2, “Method for extraction and surfactant enhanced subsurface contaminant recovery” (priority 2007, dated 2018).

Molecules are shown by their SMILES.

For the data set the following is noted: Table 2; cited from earlier work.

As for `c1ccc2ccccc2c1` [Naphthalene], the “log Kow” value was 3.4.
